We go through 1 protein from paper PMC3233431.

For orientation: Km means the concentration of substrate that gives half-maximal velocity.

Substrate in the series: C=CC1=C(C)C2=Cc3c(C=C)c(C)c4[n]3[Fe]([Cl])[n]3c(c(C)c(CCC(=O)O)c3=CC3=NC(=C4)C(C)=C3CCC(=O)O)=CC1=N2
Put plainly: purified protein. The following applies: NADPH, 0.1 M HEPES-NaOH pH 7.2, hemin 1-20 μM.

B1: mTaHO1 (mature TaHO1) (Triticum aestivum) (protein)
chain: AAAAATEMAPAARGEGGGKPFMDEMRAVAMRLHTKDQAREGEKEPQAPPVARWEPTVEGYLRFLVDSKLVFQTLEDIVDRAAVPWYAEFRNTGLERSEPLKKDLEWFTEQGHTIPEPSAAGTAYASYLEELSEKDPQAFICHFYNVYFAHTAGGRMIGKKVAEKILNKKELEFYKWEGTLSQLLQNVRTTLNQVASSWSREEKDHCLEETEKSFAYSGDLLRQIFT
Consider B1, for which the Km came out at 3.04 µM.
